“Also recorded” adds a separate entry of the source. Where two headings read alike, the source gives them in different places.
Assays:
[1] = system: relapsed or refractory ALK-positive ALCL; details: 10 patients
[2] = system: relapsed or refractory ALK-positive ALCL; details: 10 patients; Kaplan-Meier
[3] = system: patients with ALK-positive ALCL
ALK-positive ALCL = details: cited from earlier work
[4] = system: relapsed or refractory ALK-positive ALCL; details: cited from earlier work
ALK-positive lymphoma = details: 18 patients with ALK-positive lymphoma; cited from earlier work

## CCc1cc2c(cc1N1CCC(N3CCOCC3)CC1)C(C)(C)c1[nH]c3cc(C#N)ccc3c1C2=O [alectinib]
[1]
  CR rate: 60%
  Objective response (CR + PR): 8 (80) n (%)
[1]; 300 mg orally twice a day (150 mg if <35 kg), best response
  Objective response rate (CR + PR): 80%
[2]
  1-year overall survival rate: 70.0%
  1-year progression-free survival rate: 58.3%
[3]; 10 patients
  Unexpected adverse events: No unexpected adverse events; also recorded: No unexpected AE
  Visual disturbance: not observed
[3]; n = 10
  Allergic rhinitis, All grades: 2 (20) n (%)
  Allergic rhinitis, Grade ≥ 3: 0 (0) n (%)
  Bronchitis, All grades: 2 (20) n (%)
  Bronchitis, Grade ≥ 3: 0 (0) n (%)
  Conjunctivitis, All grades: 2 (20) n (%)
  Conjunctivitis, Grade ≥ 3: 0 (0) n (%)
  Constipation, All grades: 3 (30) n (%)
  Constipation, Grade ≥ 3: 0 (0) n (%)
  Coughing, All grades: 2 (20) n (%)
  Coughing, Grade ≥ 3: 0 (0) n (%)
  Decreased neutrophil count, All grades: 2 (20) n (%)
  Decreased neutrophil count, Grade ≥ 3: 2 (20) n (%)
  Diarrhea, All grades: 4 (40) n (%)
  Diarrhea, Grade ≥ 3: 0 (0) n (%)
  Dry skin, All grades: 2 (20) n (%)
  Dry skin, Grade ≥ 3: 0 (0) n (%)
  Edema in extremities, All grades: 2 (20) n (%)
  Edema in extremities, Grade ≥ 3: 1 (10) n (%)
  Fever, All grades: 2 (20) n (%)
  Fever, Grade ≥ 3: 0 (0) n (%)
  Headache, All grades: 3 (30) n (%)
  Headache, Grade ≥ 3: 0 (0) n (%)
  Hyperuricemia, All grades: 2 (20) n (%)
  Hyperuricemia, Grade ≥ 3: 0 (0) n (%)
  Increased AST, All grades: 2 (20) n (%)
  Increased AST, Grade ≥ 3: 0 (0) n (%)
  Increased blood ALP, All grades: 4 (40) n (%)
  Increased blood ALP, Grade ≥ 3: 0 (0) n (%)
  Malaise, All grades: 2 (20) n (%)
  Malaise, Grade ≥ 3: 0 (0) n (%)
  Nausea, All grades: 2 (20) n (%)
  Nausea, Grade ≥ 3: 0 (0) n (%)
  Oral mucositis, All grades: 3 (30) n (%)
  Oral mucositis, Grade ≥ 3: 1 (10) n (%)
  Pain, All grades: 2 (20) n (%)
  Pain, Grade ≥ 3: 1 (10) n (%)
  Pruritus, All grades: 2 (20) n (%)
  Pruritus, Grade ≥ 3: 0 (0) n (%)
  Rash, All grades: 4 (40) n (%)
  Rash, Grade ≥ 3: 0 (0) n (%)
  Upper respiratory infection, All grades: 4 (40) n (%)
  Upper respiratory infection, Grade ≥ 3: 0 (0) n (%)
  Vomiting, All grades: 2 (20) n (%)
  Vomiting, Grade ≥ 3: 0 (0) n (%)
[3]; of 10 patients
  Patients in whom adverse events were observed: 10 patients
[3]; patients with ALK-positive ALCL who had progressed on standard chemotherapy
  Tolerability: well tolerated

## C[C@@H](Oc1cc(-c2cnn(C3CCNCC3)c2)cnc1N)c1c(Cl)ccc(F)c1Cl [crizotinib]
ALK-positive ALCL; dose of 280 mg/m2 twice daily
  Tolerability: well tolerated
ALK-positive ALCL; nine patients with ALK-positive ALCL (7/9)
  Complete remission (CR): 78%
ALK-positive ALCL; nine patients with ALK-positive ALCL (8/9)
  Overall response rate: 89%
[4]; 20 patients, dose of 280 mg/m2
  Overall response rate: 90%
[4]; across the crizotinib clinical trials
  AEs observed: visual disturbance
[4]; dose of 165 mg/m2
  Complete remission: 83%
[4]; dose of 280 mg/m2
  Complete remission: 80%
[4]; six patients, dose of 165 mg/m2
  Overall response rate: 83%
ALK-positive lymphoma
  CRs, number: eight
  Objective response rate: 53%
